Data taken from PubChem BioAssay AID504374 (National Center for Advancing Translational Sciences (NCATS), 2011).
Only a part is listed here, and it is no random draw. Results filed as inconclusive are left out. Activity calls are given as the source filed them. Calls follow the shape of the dose curve; as a rule, active = well fitted inhibition curve with a large enough effect; inconclusive = small, poorly fitted or top-dose-only effect, or effect the other way; inactive = flat fitted curve, though single readings scatter.

Amino acid sequences for entries named in this document (tags omitted).
UniProt Q01196, whole entry, looked up: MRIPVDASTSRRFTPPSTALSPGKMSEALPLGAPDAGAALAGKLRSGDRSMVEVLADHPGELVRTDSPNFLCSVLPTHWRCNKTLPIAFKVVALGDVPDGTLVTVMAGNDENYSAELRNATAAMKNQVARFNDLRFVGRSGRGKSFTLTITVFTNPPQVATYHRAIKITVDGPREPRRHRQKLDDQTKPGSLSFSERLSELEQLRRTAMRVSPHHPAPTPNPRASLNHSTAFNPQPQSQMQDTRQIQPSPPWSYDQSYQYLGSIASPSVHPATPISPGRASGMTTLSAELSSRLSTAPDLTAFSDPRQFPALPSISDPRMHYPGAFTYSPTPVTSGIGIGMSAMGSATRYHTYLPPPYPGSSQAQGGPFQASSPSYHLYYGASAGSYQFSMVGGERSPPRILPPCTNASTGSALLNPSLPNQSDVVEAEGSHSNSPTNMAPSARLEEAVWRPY
UniProt Q13951, whole entry, looked up: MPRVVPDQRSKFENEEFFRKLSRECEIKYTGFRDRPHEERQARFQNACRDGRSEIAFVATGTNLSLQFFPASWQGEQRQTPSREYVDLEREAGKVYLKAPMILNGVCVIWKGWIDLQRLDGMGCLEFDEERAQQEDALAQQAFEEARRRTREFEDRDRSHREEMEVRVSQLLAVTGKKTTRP

molecular target: Runt-related transcription factor 1 (Homo sapiens) + Core-binding factor subunit beta (Homo sapiens) (UniProt Q01196+Q13951); test: qHTS Assay for Compounds Blocking the Interaction Between CBF-beta and RUNX1 for the Treatment of Acute Myeloid Leukemia: Hit Validation; details: AlphaScreen CBFb-His/RUNX1-biotin binding; at 59.8 µM (top of the series); also: nearly all actives have a fitted effect of over 60% in size
% is scaled to controls: 0 for no effect and ±100 for the full control effect.

| Compound | activity, negative = inhibition |
| --- | --- |
| N#CC1(Nc2ccccc2)CCN(Cc2ccccc2)CC1 | inactive: 3.4% |
